Yeast mating assay 1: variants of the scFv Ab-14

The measurements come from Engelhart et al. 2022 (doi:10.1038/s41597-022-01779-4) through the FLAb antibody collection.

Target peptide (SARS-CoV-2 spike, HR2 region): PDVDLGDISGINAS

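The parent was found by panning a naive human phage display library on the peptide. Library AAYL49 holds single substitutions and randomly drawn double and triple substitutions in the CDRs. The scFvs were displayed on barcoded MATa yeast, the peptide on MATalpha yeast. After mating in shaken culture at 30 °C for 16 h, diploids were selected and their barcode pairs sequenced. Read counts were normalised to the haploid input and turned into Kd by a linear fit to BCL2-family pairs of known affinity, for each replicate. The assay was run in three technical replicates.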

Parent: Ab-14, a human scFv built as VH, the linker GGGGSGGGGSGGGGS, VL. Only the CDRs of the heavy chain vary.
VH: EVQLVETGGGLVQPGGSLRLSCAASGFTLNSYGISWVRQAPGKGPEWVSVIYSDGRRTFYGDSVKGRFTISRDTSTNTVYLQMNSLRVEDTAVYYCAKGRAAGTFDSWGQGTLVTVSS
VL: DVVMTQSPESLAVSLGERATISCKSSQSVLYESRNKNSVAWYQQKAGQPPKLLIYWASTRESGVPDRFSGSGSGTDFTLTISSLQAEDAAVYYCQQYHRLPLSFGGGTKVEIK

Changes read parent residue, position, new residue, counted from the first residue of the VH shown.
This list gathers variants with a substitution at Y60 (VH, numbered from residue 1).
Each Kd is an estimate from the mating assay, the geometric mean of the replicates in which the pair was seen; lower is stronger.
"nd" marks a missing value. The strain was present, yet no cells mated with the target were sequenced in any replicate, which points to weak or no binding.
The list is sorted by this average, lowest first, undetected variants last.
Background: pairings of library AAYL49 with three empty control strains gave a value in 15% of cases (median 11 µM, 5th percentile 680 nM). Values in that range, when seen in few replicates, are hard to tell from nonspecific mating.

| changes | Kd (apparent) | replicates with signal |
|---|---|---|
| Y60F+A102E+F105Q | 110 nM | 3 of 3 |
| S31D+R56A+Y60Q | 230 nM | 3 of 3 |
| V50K+Y60F+V64P | 310 nM | 1 of 3 |
| Y32I+Y60Q+S63K | 730 nM | 1 of 3 |
| R57F+Y60K+A101G | 850 nM | 1 of 3 |
| I51G+Y60N+R100K | 1.8 µM | 2 of 3 |
| V50K+R57E+Y60G | 1.9 µM | 1 of 3 |
| G26V+T28V+Y60A | 4.6 µM | 1 of 3 |
| Y60F+V64E+K65Y | 5.3 µM | 2 of 3 |
| L29V+S53N+Y60F | 5.4 µM | 1 of 3 |
| F27I+D54P+Y60L | 6.0 µM | 3 of 3 |
| G26I+S35H+Y60V | 9.2 µM | 3 of 3 |
| Y60L+D62V+S107N | 9.5 µM | 1 of 3 |
| N30E+G33E+Y60Q | 13 µM | 2 of 3 |
| T28E+L29S+Y60Q | 24 µM | 2 of 3 |
| D54V+Y60W+R100P | 29 µM | 1 of 3 |
| I34R+F59L+Y60N | 38 µM | 1 of 3 |
| L29F+Y60N+R100C | 81 µM | 1 of 3 |
| V50L+G55T+Y60P | 1.7 mM | 1 of 3 |
| Y60G+G103N | nd | 0 of 3 |
| I34G+F59I+Y60H | nd | 0 of 3 |
| I51M+Y60G+G103K | nd | 0 of 3 |
| D54Y+Y60S+D106L | nd | 0 of 3 |
| L29D+Y60M+T104N | nd | 0 of 3 |
| L29S+Y60P | nd | 0 of 3 |
| T58H+Y60M+F105L | nd | 0 of 3 |
| Y32E+Y60P+F105S | nd | 0 of 3 |
| F59C+Y60P+G99N | nd | 0 of 3 |
| R57M+Y60R+A102Q | nd | 0 of 3 |
| Y60E+S63K+A102K | nd | 0 of 3 |
| D54R+Y60G+A101L | nd | 0 of 3 |
| G26Y+G55M+Y60F | nd | 0 of 3 |
| G26C+Y60T+K65A | nd | 0 of 3 |
| L29F+Y60K+V64M | nd | 0 of 3 |
| Y52H+D54T+Y60C | nd | 0 of 3 |
| Y60E | nd | 0 of 3 |
| G33C+Y60N+K65D | nd | 0 of 3 |
| Y52W+Y60L+D62Y | nd | 0 of 3 |
| Y60K+D62H+D106Y | nd | 0 of 3 |
| F59P+Y60Q+D106A | nd | 0 of 3 |
| F27Y+G55I+Y60N | nd | 0 of 3 |
| S31L+Y32R+Y60F | nd | 0 of 3 |
| F59H+Y60F+D106C | nd | 0 of 3 |
| D54I+Y60V+V64G | nd | 0 of 3 |
| G26H+Y60C+G61Y | nd | 0 of 3 |
| Y60F+S63V+A101Y | nd | 0 of 3 |
| T28S+V50C+Y60T | nd | 0 of 3 |
| S35V+Y60M+S107N | nd | 0 of 3 |
| Y60Q | nd | 0 of 3 |
| Y60V | nd | 0 of 3 |
| F59P+Y60C+D106R | nd | 0 of 3 |
| R56T+Y60T+S63Y | nd | 0 of 3 |
| L29H+V50K+Y60W | nd | 0 of 3 |
| S35A+Y60V+D106P | nd | 0 of 3 |
| V50Q+Y60A+G61H | nd | 0 of 3 |
| Y60I+D62F+G99C | nd | 0 of 3 |
| Y60W+S63P+A101N | nd | 0 of 3 |
| Y60S+V64C+S107P | nd | 0 of 3 |
| I34T+Y60E+F105L | nd | 0 of 3 |
| Y60I+V64Q | nd | 0 of 3 |
| G33S+Y60S+A101E | nd | 0 of 3 |
| G55V+Y60L+A101Q | nd | 0 of 3 |
| F27C+Y60Q | nd | 0 of 3 |
| Y60P+R100P+A102Q | nd | 0 of 3 |
| T28F+L29R+Y60Q | nd | 0 of 3 |

Excerpt, the final 9 entries:

changes,Kd (apparent),replicates with signal
Y60W+S63P+A101N,nd,0 of 3
Y60S+V64C+S107P,nd,0 of 3
I34T+Y60E+F105L,nd,0 of 3
Y60I+V64Q,nd,0 of 3
G33S+Y60S+A101E,nd,0 of 3
G55V+Y60L+A101Q,nd,0 of 3
F27C+Y60Q,nd,0 of 3
Y60P+R100P+A102Q,nd,0 of 3
T28F+L29R+Y60Q,nd,0 of 3

For reference, the parent read 4.4 nM as the reference entry and 13 µM (one replicate of three) as a member of this library.